These results are taken from patent US12622887B2 (priority 2019, dated 2026).

In this assay the test system is αKlotho. Put plainly: Release of soluble αKlotho in supernatant of primary tubule cell cultures (RPTEC), ELISA. In kind it is cell-based. The conditions noted are these: Gentamicin sulphate 10 mM 6 h alone. How it is done: Concentrations of H2O2 equal to 0.1, 0.2, 0.5 up to 1 mM were also tested. […] The soluble aKlotho analysis was performed using the commercial test ELISA lbl code 277789 following the manufacturer's instructions. […] The soluble aKlotho analysis was performed using ELISA lbl test.
On the technique in general: In an ELISA, binding on a coated surface is turned into a signal by an enzyme label.

For gentamicin sulphate, the “Average Klotho value” is 0 pg/mL.
